Test results: US20080026986A1, “REVERSAL OF THE SUPPRESSIVE FUNCTION OF SPECIFIC T CELLS VIA TOLL-LIKE RECEPTOR 8 SIGNALING” (priority 2006, published 2008)

Tested on: antigen-specific Treg cells

Compound: CC(C)Cn1cnc2c(N)nc3ccccc3c21 [imiquimod, Imiquimod]
- Reversal of the suppressive function of antigen-specific Treg cells: partial reversal
